# Assays:
# GIP receptors = target: T1, GIP receptors (Homo sapiens, UniProt P48546); assay: In vitro GIP receptor autoradiography: displacement of 125I-GIP(1-30) in tissue sections; format: binding
# T1 construct: from tissue; host or cells: fresh frozen human tumor tissue (neuroendocrine tumors) and non-neoplastic human tissue (pancreatic islets) from surgical resection
# T1 sequence (P48546 22-466): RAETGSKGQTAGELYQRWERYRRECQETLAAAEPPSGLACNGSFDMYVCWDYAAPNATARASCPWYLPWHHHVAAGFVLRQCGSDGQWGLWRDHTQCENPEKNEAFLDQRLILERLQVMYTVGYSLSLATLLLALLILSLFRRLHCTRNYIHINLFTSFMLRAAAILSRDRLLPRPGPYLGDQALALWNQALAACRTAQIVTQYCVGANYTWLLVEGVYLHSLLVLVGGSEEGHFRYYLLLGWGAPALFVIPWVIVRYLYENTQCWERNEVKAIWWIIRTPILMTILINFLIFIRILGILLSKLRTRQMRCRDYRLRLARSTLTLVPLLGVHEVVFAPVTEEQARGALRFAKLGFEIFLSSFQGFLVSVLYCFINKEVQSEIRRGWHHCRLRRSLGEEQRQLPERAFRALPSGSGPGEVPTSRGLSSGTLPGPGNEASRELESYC
# Experimental: It was radiolabeled by the lactoperoxidase method and purified by HPLC (Anawa, Wangen, Switzerland). The two lodo-Tyrosine analogues (peak 1 iodinated at Tyr^1 and peak 2 iodinated at Tyr^10) were analyzed by LC-ESI-MS-MS (R. Brunisholz, Functional Genomics Center Zürich, ETHZ). […] After incubation, the slides were washed five times in ice-cold Tris-HCl buffer (170 mM; pH 8.2) containing 0.25% BSA and twice in ice-cold Tris-HCl buffer without BSA. The slides were dried for 15 minutes under a stream of cold air and then exposed to Kodak films Biomax MR® for seven days at 4° C. The signals on the films were analyzed in correlation with morphology using corresponding H&E stained tissue slides. The receptor density was quantitatively assessed using tissue standards for iodinated compounds (Amersham, Aylesbury, UK) and a computer-assisted image processing system (Analysis Imaging System, Interfocus, Mering, Germany).
# [1] = test system: normal pancreatic β-cells, hippocampus and tumoral MC-26 tissues; conditions: cited from earlier work
substance,measurement,setting,value
glucose-dependent insulinotropic polypeptide [GIP],displacement of 125I-GIP(1-30) binding at the receptors,GIP receptors; 100 nM unlabeled peptide (non-specific binding),completely and specifically displaces
same,displacement of 125I-GIP(1-30) (affinity),"GIP receptors; increasing concentrations of cold peptide, tumor and normal pancreatic islets, all examples",high affinity in the nanomolar concentration range
same,cell proliferation,[1],stimulate cell proliferation

# From patent US20140377171A1, “Imaging and Treatment of Neuroendocrine Tumors with Glucose - Dependent Insulinotropic Polypeptide or Analogues or Antagonists Thereof” (priority 2011, published 2014)
